Test results from PubChem BioAssay AID1024 (Sanford-Burnham Center for Chemical Genomics, 2008).
The list shows a part of the results, in another mix than the full data. The source made the active and inactive calls.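 How the source made its calls: active means activation factor of 2 or more for CYP2C9 at a 5 µM dose; inactive means the rest.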

By UniProt entry, the sequences of proteins in these tests, tags left out.
UniProt P11712, whole entry: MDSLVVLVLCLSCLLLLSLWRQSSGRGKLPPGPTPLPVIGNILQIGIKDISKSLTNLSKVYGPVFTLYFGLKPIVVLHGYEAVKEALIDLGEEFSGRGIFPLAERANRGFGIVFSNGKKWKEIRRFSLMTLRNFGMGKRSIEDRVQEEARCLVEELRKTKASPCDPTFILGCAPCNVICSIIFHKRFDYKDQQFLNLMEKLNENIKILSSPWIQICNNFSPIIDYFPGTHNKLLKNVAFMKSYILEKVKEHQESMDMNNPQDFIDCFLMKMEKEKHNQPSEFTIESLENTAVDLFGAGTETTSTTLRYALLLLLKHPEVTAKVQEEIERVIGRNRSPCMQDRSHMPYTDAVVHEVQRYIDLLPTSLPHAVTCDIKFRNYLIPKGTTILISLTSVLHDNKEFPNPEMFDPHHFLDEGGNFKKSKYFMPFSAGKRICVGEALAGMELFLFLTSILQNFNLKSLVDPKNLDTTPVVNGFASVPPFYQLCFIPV

biological target: Cytochrome P450 2C9 (Homo sapiens) (UniProt P11712); assay: human CYP2C9 activators, primary screen, biochemical, luminescence (AID 1024); details: recombinant CYP2C9, luciferin-H conversion, at 5 µM, hits give high values, factor 1 = untreated enzyme, 0 = blocked;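 further: 0 = sulfaphenazole-blocked wells and 1 = vehicle-only wells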

Row | SMILES | activation factor
1 | O=C(NCC1(N2CCOCC2)CCCCC1)c1cc(=O)[nH]c2ccccc12 | inactive: 1
2 | N#CC1(Nc2ccccc2)CCN(CCc2ccccc2)CC1 | inactive: 1
3 | COc1ccc(NC2CCN(CCc3ccccc3)CC2)c(OC)c1 | inactive: 0.9
4 | O=C(NCC1(N2CCOCC2)CCCCC1)c1cc2ccccc2o1 | inactive: 0.7
5 | O=C(OC1CN2CCC1CC2)C1c2ccccc2Oc2ccccc21 (stereo not given) | inactive: 1
6 | CCC(CO)(C(=O)OC1CN2CCC1CC2)c1ccccc1 (stereo not given) | inactive: 1.2
7 | CCOc1ncccc1C(=O)NCC1(N2CCOCC2)CCCCC1 | inactive: 0.5
8 | Fc1ccccc1NC1CCN(Cc2ccccc2)CC1 | inactive: 0.9
9 | c1ccc(CN2CCC(Nc3ccccc3)CC2)cc1 | inactive: 0.5
10 | N/C(=N\O)c1c(N)no[n+]1[O-] | inactive: 0.9
